Each block holds one compound with its values, some of them ahead of it.
Key:
PI3Kβ = PI3Kβ (Homo sapiens, UniProt P42338); assay: In vitro test of enzyme activity (ADP-Glo lipokinase), PI3K beta; conditions: read-out: PI3Kβ IC50, 40 μM ATP, 50 μM PIP2:3PS, 120 min
PI3Kδ = PI3Kδ (Homo sapiens, UniProt O00329); assay: In vitro test of enzyme activity (ADP-Glo lipokinase), PI3K delta; conditions: read-out: PI3Kδ IC50, 40 μM ATP, 50 μM PIP2:3PS, 120 min
PI3Kα = PI3Kα (Homo sapiens, UniProt P42336); assay: In vitro test of enzyme activity (ADP-Glo lipokinase), PI3K alpha; conditions: read-out: PI3Kα IC50, 40 μM ATP, 50 μM PIP2:3PS, 120 min
PI3Kγ = PI3Kγ (Homo sapiens, UniProt P48736); assay: In vitro test of enzyme activity (ADP-Glo lipokinase), PI3K gamma; conditions: read-out: PI3Kγ IC50, 25 μM ATP, 50 μM PIP2:3PS, 120 min

By UniProt entry, the sequences of proteins in these tests, tags left out. Where a name states a change or a piece, a line headed by the entry shows the natural chain unless it says otherwise.
UniProt P42338, whole entry: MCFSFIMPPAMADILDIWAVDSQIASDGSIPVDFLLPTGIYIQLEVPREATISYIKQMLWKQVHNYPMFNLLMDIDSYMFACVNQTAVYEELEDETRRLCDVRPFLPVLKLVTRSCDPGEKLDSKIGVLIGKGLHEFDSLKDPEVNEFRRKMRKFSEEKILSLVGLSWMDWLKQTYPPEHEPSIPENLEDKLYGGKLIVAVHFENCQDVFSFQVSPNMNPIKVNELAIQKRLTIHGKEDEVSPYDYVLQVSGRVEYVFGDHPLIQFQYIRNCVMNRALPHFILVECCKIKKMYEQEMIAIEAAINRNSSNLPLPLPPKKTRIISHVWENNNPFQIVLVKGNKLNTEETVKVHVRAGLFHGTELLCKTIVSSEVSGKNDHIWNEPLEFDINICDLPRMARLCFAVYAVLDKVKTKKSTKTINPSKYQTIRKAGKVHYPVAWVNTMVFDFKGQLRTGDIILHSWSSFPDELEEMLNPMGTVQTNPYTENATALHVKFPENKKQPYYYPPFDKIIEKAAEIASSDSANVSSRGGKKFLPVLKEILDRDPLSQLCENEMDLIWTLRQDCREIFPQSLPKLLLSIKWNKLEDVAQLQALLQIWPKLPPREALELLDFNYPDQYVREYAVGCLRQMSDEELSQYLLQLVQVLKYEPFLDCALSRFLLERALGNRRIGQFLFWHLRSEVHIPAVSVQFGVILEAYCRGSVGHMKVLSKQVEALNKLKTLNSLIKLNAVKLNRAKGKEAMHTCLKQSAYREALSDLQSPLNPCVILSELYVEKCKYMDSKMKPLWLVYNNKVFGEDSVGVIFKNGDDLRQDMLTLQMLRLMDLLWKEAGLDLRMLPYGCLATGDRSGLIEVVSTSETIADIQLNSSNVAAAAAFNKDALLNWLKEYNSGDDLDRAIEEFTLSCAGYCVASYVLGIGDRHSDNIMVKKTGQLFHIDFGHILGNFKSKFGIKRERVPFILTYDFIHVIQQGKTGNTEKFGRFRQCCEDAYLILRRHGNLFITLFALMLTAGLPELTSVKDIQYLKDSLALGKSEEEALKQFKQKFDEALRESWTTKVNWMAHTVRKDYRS
UniProt O00329, whole entry: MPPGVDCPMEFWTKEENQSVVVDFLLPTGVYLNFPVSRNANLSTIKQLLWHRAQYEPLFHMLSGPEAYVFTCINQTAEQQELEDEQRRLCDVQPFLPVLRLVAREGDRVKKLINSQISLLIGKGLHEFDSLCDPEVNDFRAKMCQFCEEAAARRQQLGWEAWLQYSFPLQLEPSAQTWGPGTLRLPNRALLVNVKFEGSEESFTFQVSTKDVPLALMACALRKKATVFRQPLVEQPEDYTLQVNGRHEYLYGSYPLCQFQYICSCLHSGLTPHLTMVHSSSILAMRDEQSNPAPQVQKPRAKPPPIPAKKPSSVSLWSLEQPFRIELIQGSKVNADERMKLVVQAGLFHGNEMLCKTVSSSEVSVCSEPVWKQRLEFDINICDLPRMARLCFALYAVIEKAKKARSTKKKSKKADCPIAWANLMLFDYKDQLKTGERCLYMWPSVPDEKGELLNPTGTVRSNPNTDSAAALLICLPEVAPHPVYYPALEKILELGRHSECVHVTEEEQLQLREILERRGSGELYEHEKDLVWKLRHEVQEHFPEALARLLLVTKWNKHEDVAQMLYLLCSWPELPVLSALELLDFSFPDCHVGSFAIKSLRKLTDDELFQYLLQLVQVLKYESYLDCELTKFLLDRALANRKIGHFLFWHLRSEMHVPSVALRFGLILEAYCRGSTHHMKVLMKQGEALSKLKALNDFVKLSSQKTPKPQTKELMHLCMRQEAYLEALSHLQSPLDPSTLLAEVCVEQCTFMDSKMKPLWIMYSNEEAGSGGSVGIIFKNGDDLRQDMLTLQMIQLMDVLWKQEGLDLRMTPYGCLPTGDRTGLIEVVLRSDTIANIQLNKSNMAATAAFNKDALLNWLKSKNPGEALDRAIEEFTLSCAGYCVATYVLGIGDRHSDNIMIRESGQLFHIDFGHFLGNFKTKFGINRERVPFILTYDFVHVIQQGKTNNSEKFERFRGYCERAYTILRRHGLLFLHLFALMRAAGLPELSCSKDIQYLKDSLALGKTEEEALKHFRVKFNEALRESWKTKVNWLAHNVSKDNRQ
UniProt P42336, whole entry: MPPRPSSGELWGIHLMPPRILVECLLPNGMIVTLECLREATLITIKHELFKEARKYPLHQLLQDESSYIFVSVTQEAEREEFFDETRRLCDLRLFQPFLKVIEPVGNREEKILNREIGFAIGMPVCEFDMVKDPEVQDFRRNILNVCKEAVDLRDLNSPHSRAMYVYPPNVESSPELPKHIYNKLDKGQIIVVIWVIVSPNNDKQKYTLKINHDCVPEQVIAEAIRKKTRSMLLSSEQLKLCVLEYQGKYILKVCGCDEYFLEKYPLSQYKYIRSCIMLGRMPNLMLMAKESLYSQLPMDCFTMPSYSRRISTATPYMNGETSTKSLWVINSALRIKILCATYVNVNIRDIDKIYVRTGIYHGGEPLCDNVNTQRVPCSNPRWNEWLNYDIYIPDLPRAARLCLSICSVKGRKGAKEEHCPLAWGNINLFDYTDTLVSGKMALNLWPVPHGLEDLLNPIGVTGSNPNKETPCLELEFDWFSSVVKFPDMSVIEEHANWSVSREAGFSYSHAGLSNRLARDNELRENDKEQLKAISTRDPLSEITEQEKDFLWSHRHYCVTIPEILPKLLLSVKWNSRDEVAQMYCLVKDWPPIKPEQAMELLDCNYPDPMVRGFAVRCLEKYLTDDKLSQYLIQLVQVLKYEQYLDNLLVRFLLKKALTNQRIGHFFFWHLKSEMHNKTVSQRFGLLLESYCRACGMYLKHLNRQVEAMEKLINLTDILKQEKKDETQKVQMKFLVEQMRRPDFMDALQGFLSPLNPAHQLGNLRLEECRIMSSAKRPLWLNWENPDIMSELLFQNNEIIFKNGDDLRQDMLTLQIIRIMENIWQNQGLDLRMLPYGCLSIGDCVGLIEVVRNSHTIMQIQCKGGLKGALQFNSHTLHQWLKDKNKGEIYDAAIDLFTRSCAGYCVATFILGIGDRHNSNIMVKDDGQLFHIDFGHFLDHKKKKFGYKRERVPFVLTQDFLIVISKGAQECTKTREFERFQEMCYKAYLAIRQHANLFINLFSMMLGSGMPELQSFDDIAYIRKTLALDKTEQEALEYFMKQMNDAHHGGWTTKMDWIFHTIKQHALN
UniProt P48736, whole entry: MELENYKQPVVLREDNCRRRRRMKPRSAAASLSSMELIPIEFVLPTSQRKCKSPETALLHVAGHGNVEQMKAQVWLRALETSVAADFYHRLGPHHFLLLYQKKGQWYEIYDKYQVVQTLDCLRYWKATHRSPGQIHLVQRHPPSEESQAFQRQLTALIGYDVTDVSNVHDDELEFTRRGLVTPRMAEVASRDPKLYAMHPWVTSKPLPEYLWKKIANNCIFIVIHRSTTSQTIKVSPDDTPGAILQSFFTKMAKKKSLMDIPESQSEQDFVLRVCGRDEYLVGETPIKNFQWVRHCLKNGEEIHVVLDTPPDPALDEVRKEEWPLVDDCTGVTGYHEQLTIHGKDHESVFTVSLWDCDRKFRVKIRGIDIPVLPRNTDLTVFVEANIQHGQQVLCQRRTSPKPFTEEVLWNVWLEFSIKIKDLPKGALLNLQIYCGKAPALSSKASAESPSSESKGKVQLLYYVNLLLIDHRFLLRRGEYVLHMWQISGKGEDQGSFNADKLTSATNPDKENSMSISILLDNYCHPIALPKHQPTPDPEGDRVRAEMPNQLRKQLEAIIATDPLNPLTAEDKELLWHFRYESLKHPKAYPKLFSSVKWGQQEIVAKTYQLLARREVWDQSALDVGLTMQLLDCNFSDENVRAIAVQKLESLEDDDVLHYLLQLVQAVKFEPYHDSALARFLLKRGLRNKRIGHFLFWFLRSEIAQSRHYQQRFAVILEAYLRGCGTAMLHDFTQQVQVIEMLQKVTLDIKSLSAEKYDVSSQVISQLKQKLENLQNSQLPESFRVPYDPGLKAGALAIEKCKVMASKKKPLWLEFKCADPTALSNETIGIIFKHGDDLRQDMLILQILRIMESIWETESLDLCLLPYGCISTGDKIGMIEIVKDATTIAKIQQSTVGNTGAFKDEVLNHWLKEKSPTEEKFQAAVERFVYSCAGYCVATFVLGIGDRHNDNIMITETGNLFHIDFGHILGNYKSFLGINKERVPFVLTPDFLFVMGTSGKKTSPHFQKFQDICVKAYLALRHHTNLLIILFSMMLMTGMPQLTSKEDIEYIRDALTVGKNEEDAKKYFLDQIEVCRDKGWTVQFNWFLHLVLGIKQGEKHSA
UniProt P27986, whole entry partner: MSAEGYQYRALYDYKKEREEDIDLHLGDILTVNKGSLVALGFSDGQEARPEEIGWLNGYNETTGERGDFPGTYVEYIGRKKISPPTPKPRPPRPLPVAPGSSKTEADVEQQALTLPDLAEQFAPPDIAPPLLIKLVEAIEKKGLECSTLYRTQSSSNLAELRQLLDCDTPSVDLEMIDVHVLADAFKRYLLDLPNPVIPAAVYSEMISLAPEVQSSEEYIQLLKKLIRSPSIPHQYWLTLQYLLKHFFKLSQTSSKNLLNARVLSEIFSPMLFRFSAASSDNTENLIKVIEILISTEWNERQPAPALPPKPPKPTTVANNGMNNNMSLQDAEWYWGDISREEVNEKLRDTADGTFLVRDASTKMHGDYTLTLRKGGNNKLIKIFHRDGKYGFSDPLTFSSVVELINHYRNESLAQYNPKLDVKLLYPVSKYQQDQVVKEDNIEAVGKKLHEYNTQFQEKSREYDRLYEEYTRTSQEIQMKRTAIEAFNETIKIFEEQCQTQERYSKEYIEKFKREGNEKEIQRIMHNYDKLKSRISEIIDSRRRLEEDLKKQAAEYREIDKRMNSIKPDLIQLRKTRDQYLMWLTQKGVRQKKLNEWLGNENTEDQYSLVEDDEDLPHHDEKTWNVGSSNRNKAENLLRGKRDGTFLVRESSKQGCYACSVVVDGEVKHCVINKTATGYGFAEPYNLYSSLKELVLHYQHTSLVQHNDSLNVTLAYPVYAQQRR

SMILES: Cc1ncc(-c2ccc3ncn(CCCC(=O)NC(C)C)c(=O)c3c2)cc1NS(=O)(=O)c1ccc(F)cc1Cl
IC50 (PI3Kβ): 0.42 µM | IC50 (PI3Kδ): 0.0242 µM | IC50 (PI3Kα): 0.00315 µM | IC50 (PI3Kγ): 0.0658 µM

SMILES: CCc1ncc(-c2ccc3ncn(CC(C)C(=O)NC)c(=O)c3c2)cc1NS(=O)(=O)c1ccc(F)cc1Cl (single isomer, unassigned) [WX070]
IC50 (PI3Kβ): 1.84 µM | IC50 (PI3Kδ): 0.0818 µM | IC50 (PI3Kα): 0.00595 µM | IC50 (PI3Kγ): 0.0855 µM

SMILES: COc1ncc(-c2ccc3ncn(CC(C)C(=O)NC4CC4)c(=O)c3c2)cc1NS(=O)(=O)c1ccc(F)cc1Cl (single isomer, unassigned) [WX076]
IC50 (PI3Kβ): 0.605 µM | IC50 (PI3Kδ): 0.00705 µM | IC50 (PI3Kγ): 0.0147 µM

SMILES: CNC(=O)C(O)Cn1cnc2ccc(-c3cnc(OC)c(NS(=O)(=O)c4ccc(F)cc4Cl)c3)cc2c1=O (single isomer, unassigned) [WX044]
IC50 (PI3Kβ): 0.0745 µM | IC50 (PI3Kδ): 0.00833 µM | IC50 (PI3Kα): 0.00479 µM | IC50 (PI3Kγ): 0.0094 µM

SMILES: Cc1nc(C)c(S(=O)(=O)Nc2cc(-c3ccc4ncn(CC(C)C(=O)N5CCCC5)c(=O)c4c3)cnc2C)s1 (single isomer, unassigned) [WX053]
IC50 (PI3Kβ): 0.337 µM | IC50 (PI3Kδ): 0.0024 µM | IC50 (PI3Kα): 0.0043 µM | IC50 (PI3Kγ): 0.00884 µM

SMILES: Cc1ncc(-c2ccc3ncn(CC(C)C(=O)NC4CC4)c(=O)c3c2)cc1NS(=O)(=O)c1ccc(F)cc1Cl (single isomer, unassigned) [WX055]
IC50 (PI3Kβ): 1.32 µM | IC50 (PI3Kδ): 0.0522 µM | IC50 (PI3Kα): 0.0186 µM | IC50 (PI3Kγ): 0.0597 µM

SMILES: Cc1nc(C)c(S(=O)(=O)Nc2cc(-c3ccc4ncn(CC(C)C(=O)NC(C)C)c(=O)c4c3)cnc2C)s1 (single isomer, unassigned) [WX048]
IC50 (PI3Kβ): 2.05 µM | IC50 (PI3Kδ): 0.0189 µM | IC50 (PI3Kα): 0.0025 µM | IC50 (PI3Kγ): 0.05 µM

SMILES: CNC(=O)C(C)CCn1cnc2ccc(-c3cnc(OC)c(NS(=O)(=O)c4ccc(F)cc4Cl)c3)cc2c1=O (single isomer, unassigned) [WX050]
IC50 (PI3Kβ): 0.189 µM | IC50 (PI3Kδ): 0.00685 µM | IC50 (PI3Kα): 0.00415 µM | IC50 (PI3Kγ): 0.0158 µM

SMILES: Cc1nc(C)c(S(=O)(=O)Nc2cc(-c3ccc4ncn(CC(C)C(=O)NC(C)C)c(=O)c4c3)cnc2C)s1 (single isomer, unassigned) [WX049]
IC50 (PI3Kβ): 0.715 µM | IC50 (PI3Kδ): 0.0159 µM | IC50 (PI3Kα): 0.00607 µM | IC50 (PI3Kγ): 0.0265 µM

SMILES: COc1ncc(-c2ccc3ncn(CC(C)C(=O)NC(C)C)c(=O)c3c2)cc1NS(=O)(=O)c1ccc(F)cc1Cl (single isomer, unassigned) [WX079]
IC50 (PI3Kβ): 0.447 µM | IC50 (PI3Kα): 0.0111 µM

SMILES: CNC(=O)C(C)Cn1cnc2ccc(-c3cnc(OC)c(NS(=O)(=O)c4ccc(Cl)cc4)c3)cc2c1=O (single isomer, unassigned) [WX131]
IC50 (PI3Kβ): 0.312 µM | IC50 (PI3Kα): 0.00376 µM

SMILES: CNC(=O)C(C)Cn1cnc2ccc(-c3cnc(OC)c(NS(=O)(=O)c4cc(Cl)cc(Cl)c4)c3)cc2c1=O (single isomer, unassigned) [WX227]
IC50 (PI3Kβ): 0.326 µM | IC50 (PI3Kα): 0.00668 µM

SMILES: CNC(=O)C(C)Cn1cnc2ccc(-c3cnc(OC)c(NS(=O)(=O)c4ccc(C)cc4Cl)c3)cc2c1=O (single isomer, unassigned) [WX176]
IC50 (PI3Kβ): 0.101 µM | IC50 (PI3Kα): 0.00313 µM

SMILES: CNC(=O)C(C)Cn1cnc2ccc(-c3cnc(OC)c(NS(=O)(=O)c4ccc(F)c(C(F)(F)F)c4)c3)cc2c1=O (single isomer, unassigned) [WX230]
IC50 (PI3Kβ): 1.31 µM | IC50 (PI3Kα): 0.0235 µM

SMILES: CNC(=O)C(C)Cn1cnc2ccc(-c3cnc(OC)c(NS(=O)(=O)c4cccc(Cl)c4)c3)cc2c1=O (single isomer, unassigned) [WX164]
IC50 (PI3Kβ): 0.178 µM | IC50 (PI3Kα): 0.00824 µM

SMILES: COc1ncc(-c2ccc3ncn(CC(C)C(=O)NC4CCC4)c(=O)c3c2)cc1NS(=O)(=O)c1ccc(F)cc1Cl (single isomer, unassigned) [WX075]
IC50 (PI3Kβ): 0.386 µM | IC50 (PI3Kα): 0.0123 µM

SMILES: CNC(=O)C(C)Cn1cnc2ccc(-c3cnc(OC)c(NS(=O)(=O)c4cccc(Cl)c4C)c3)cc2c1=O (single isomer, unassigned) [WX138]
IC50 (PI3Kβ): 0.203 µM | IC50 (PI3Kα): 0.00522 µM

SMILES: CNC(=O)C(C)Cn1cnc2ccc(-c3cnc(OC)c(NS(=O)(=O)c4ccccc4C(F)(F)F)c3)cc2c1=O (single isomer, unassigned) [WX100]
IC50 (PI3Kβ): 0.159 µM | IC50 (PI3Kα): 0.00399 µM

SMILES: CNC(=O)C(C)Cn1cnc2ccc(-c3cnc(OC)c(NS(=O)(=O)c4cc(F)ccc4C)c3)cc2c1=O (single isomer, unassigned) [WX225]
IC50 (PI3Kβ): 0.199 µM | IC50 (PI3Kα): 0.00528 µM

SMILES: COc1ncc(-c2ccc3ncn(CC(C)C(=O)NCC(C)C)c(=O)c3c2)cc1NS(=O)(=O)c1ccc(F)cc1Cl (single isomer, unassigned) [WX073]
IC50 (PI3Kβ): 1.07 µM | IC50 (PI3Kα): 0.0154 µM

SMILES: CNC(=O)C(C)Cn1cnc2ccc(-c3cnc(OC)c(NS(=O)(=O)c4ccc(F)c(F)c4)c3)cc2c1=O (single isomer, unassigned) [WX132]
IC50 (PI3Kβ): 0.261 µM | IC50 (PI3Kα): 0.00826 µM

SMILES: Cc1nc(C)c(S(=O)(=O)Nc2cc(-c3ccc4ncn(CC(C)C(N)=O)c(=O)c4c3)cnc2C)s1 (single isomer, unassigned) [WX032]
IC50 (PI3Kβ): 0.139 µM | IC50 (PI3Kα): 0.00061 µM

SMILES: CNC(=O)C(C)Cn1cnc2ccc(-c3cnc(C)c(NS(=O)(=O)c4ccc(F)cc4Cl)c3)cc2c1=O (single isomer, unassigned) [WX038]
IC50 (PI3Kβ): 1.22 µM | IC50 (PI3Kδ): 0.0496 µM | IC50 (PI3Kγ): 0.0636 µM

SMILES: COc1ncc(-c2ccc3ncn(CC(C)C(=O)NC4CC4(F)F)c(=O)c3c2)cc1NS(=O)(=O)c1ccc(F)cc1Cl (centres unmarked)
IC50 (PI3Kβ): 0.72 µM | IC50 (PI3Kα): 0.00619 µM

SMILES: CNC(=O)C(C)Cn1cnc2ccc(-c3cnc(OC)c(NS(=O)(=O)c4ccc(Cl)cc4Cl)c3)cc2c1=O (single isomer, unassigned) [WX152]
IC50 (PI3Kβ): 0.159 µM | IC50 (PI3Kα): 0.00284 µM

SMILES: CNC(=O)C(C)Cn1cnc2ccc(-c3cnc(OC)c(NS(=O)(=O)c4ccc(Cl)cc4F)c3)cc2c1=O (single isomer, unassigned) [WX142]
IC50 (PI3Kβ): 0.0812 µM | IC50 (PI3Kα): 0.00611 µM

SMILES: CNC(=O)C(C)Cn1cnc2ccc(-c3cnc(OC)c(NS(=O)(=O)c4ccc(C(F)(F)F)cc4Cl)c3)cc2c1=O (single isomer, unassigned) [WX211]
IC50 (PI3Kβ): 0.192 µM | IC50 (PI3Kα): 0.00307 µM

Now from value to compound:

IC50 (PI3Kβ): 1.56 µM | IC50 (PI3Kδ): 0.0178 µM | IC50 (PI3Kα): 0.00838 µM | IC50 (PI3Kγ): 0.0274 µM
SMILES: COc1ncc(-c2ccc3ncn(CC(C)C(=O)NC4CCC4)c(=O)c3c2)cc1NS(=O)(=O)c1ccc(F)cc1Cl (single isomer, unassigned) [WX074]

IC50 (PI3Kβ): 0.265 µM | IC50 (PI3Kδ): 0.012 µM | IC50 (PI3Kα): 0.0118 µM | IC50 (PI3Kγ): 0.0294 µM
SMILES: CNC(=O)C(C)CCn1cnc2ccc(-c3cnc(OC)c(NS(=O)(=O)c4ccc(F)cc4Cl)c3)cc2c1=O (single isomer, unassigned) [WX051]

IC50 (PI3Kβ): 0.344 µM | IC50 (PI3Kδ): 0.00909 µM | IC50 (PI3Kα): 0.00431 µM | IC50 (PI3Kγ): 0.0638 µM
SMILES: Cc1nc(C)c(S(=O)(=O)Nc2cc(-c3ccc4ncn(CC(C)C(=O)N5CCCC5)c(=O)c4c3)cnc2C)s1 (single isomer, unassigned) [WX052]

IC50 (PI3Kβ): 0.212 µM | IC50 (PI3Kδ): 0.00358 µM | IC50 (PI3Kα): 0.0036 µM | IC50 (PI3Kγ): 0.0179 µM
SMILES: Cc1nc(C)c(S(=O)(=O)Nc2cc(-c3ccc4ncn(CC(C)C(=O)N(C)C)c(=O)c4c3)cnc2C)s1 (single isomer, unassigned) [WX043]

IC50 (PI3Kβ): 0.319 µM | IC50 (PI3Kδ): 0.0122 µM | IC50 (PI3Kα): 0.00717 µM | IC50 (PI3Kγ): 0.0121 µM
SMILES: CCNC(=O)C(C)Cn1cnc2ccc(-c3cnc(OC)c(NS(=O)(=O)c4ccc(F)cc4Cl)c3)cc2c1=O (single isomer, unassigned) [WX061]

IC50 (PI3Kβ): 0.377 µM | IC50 (PI3Kδ): 0.0105 µM | IC50 (PI3Kα): 0.00113 µM | IC50 (PI3Kγ): 0.0207 µM
SMILES: CNC(=O)[C@H]1C[C@H](n2cnc3ccc(-c4cncc(NS(=O)(=O)c5sc(C)nc5C)c4)cc3c2=O)C1

IC50 (PI3Kβ): 0.303 µM | IC50 (PI3Kα): 0.0115 µM
SMILES: CNC(=O)C(C)Cn1cnc2ccc(-c3cnc(OC)c(NS(=O)(=O)c4cc(C)cc(F)c4)c3)cc2c1=O (single isomer, unassigned) [WX187]

IC50 (PI3Kβ): 0.17 µM | IC50 (PI3Kα): 0.00203 µM
SMILES: CNC(=O)C(C)Cn1cnc2ccc(-c3cnc(OC)c(NS(=O)(=O)c4ccc(C)cc4Cl)c3)cc2c1=O (single isomer, unassigned) [WX177]

IC50 (PI3Kβ): 0.455 µM | IC50 (PI3Kα): 0.00432 µM
SMILES: CNC(=O)C(C)Cn1cnc2ccc(-c3cnc(OC)c(NS(=O)(=O)c4c(C)noc4C)c3)cc2c1=O (single isomer, unassigned) [WX094]

IC50 (PI3Kβ): 0.546 µM | IC50 (PI3Kα): 0.00627 µM
SMILES: CNC(=O)C(C)Cn1cnc2ccc(-c3cnc(OC)c(NS(=O)(=O)c4ccc(C)c(C)c4)c3)cc2c1=O (single isomer, unassigned) [WX168]

IC50 (PI3Kβ): 0.492 µM | IC50 (PI3Kα): 0.01 µM
SMILES: CNC(=O)C(C)Cn1cnc2ccc(-c3cnc(OC)c(NS(=O)(=O)c4cccc(C(F)(F)F)c4)c3)cc2c1=O (single isomer, unassigned) [WX098]

IC50 (PI3Kβ): 0.101 µM | IC50 (PI3Kα): 0.00471 µM
SMILES: CNC(=O)C(C)Cn1cnc2ccc(-c3cnc(OC)c(NS(=O)(=O)c4ccc(C)cc4F)c3)cc2c1=O (single isomer, unassigned) [WX134]

IC50 (PI3Kβ): 0.411 µM | IC50 (PI3Kα): 0.013 µM
SMILES: CNC(=O)C(C)Cn1cnc2ccc(-c3cnc(OC)c(NS(=O)(=O)c4ccc(F)c(C)c4)c3)cc2c1=O (single isomer, unassigned) [WX155]

IC50 (PI3Kβ): 0.128 µM | IC50 (PI3Kα): 0.00356 µM
SMILES: CNC(=O)C(C)Cn1cnc2ccc(-c3cnc(OC)c(NS(=O)(=O)c4ccc(Cl)cc4F)c3)cc2c1=O (single isomer, unassigned) [WX143]

IC50 (PI3Kβ): 0.201 µM | IC50 (PI3Kα): 0.00918 µM
SMILES: CNC(=O)C(C)Cn1cnc2ccc(-c3cnc(OC)c(NS(=O)(=O)c4cccc(F)c4)c3)cc2c1=O (single isomer, unassigned) [WX162]

IC50 (PI3Kβ): 0.15 µM | IC50 (PI3Kα): 0.00355 µM
SMILES: COc1ncc(-c2ccc3ncn(CC(C)C(=O)NCCO)c(=O)c3c2)cc1NS(=O)(=O)c1ccc(F)cc1Cl (single isomer, unassigned) [WX081]
